This note sets out measurements from patent US8772241B2, “Peptide and use thereof” (Ensoltek Co., Ltd., priority 2010, dated 2014).

This test concerns damaged cartilage tissue explants (articular chondrocyte explants). In words: Cartilage regeneration in damaged cartilage tissue explants. In kind it is cell-based, cows. The settings on record: 6-week culture; 25 μM peptide and/or 2 ng/ml TGFβ1. The procedure: Using a syringe (21G) whose tip was truncated and ground, damaged regions were prepared by making vertical holes to the surface uniformly at the center of the explant.
The perforated tissue explants were divided into 4 groups including a control group. […] In addition, the 1-week-incubated tissue explant and the 6-week-incubated tissue explant were fixed, respectively, in a 3.7% formaldehyde/phosphate buffered saline(3.7% formaldehyde/PBS). Then, according to the experimental method of standard histochemistry, paraffin section slides were prepared, followed by hematoxylin & eosin (H&E) staining and microscopic examination of cell shape and distribution in terms of morphology. Collagen was subjected to Masson's trichrome staining, and the shape and distribution of cells in the tissue were examined under a microscope. For comparison, the control group was treated in the same manner as in the group treated with the peptide of Example 1, except that the peptide of Example 1 was not treated.

In the case of “TGFβ1: transforming growth factor beta 1 (TGFβ1, Promokine)”, the “damaged region of explant, hematoxylin & eosin staining (FIG. 4)” value was “substantially no change”.
